Earlier results in paper PMC9227077 (2022).

Columns and labels:
human serum albumin = details: pH=7.4, isocratic, 10% acetonitrile; available for 37 compounds, remaining calculated by equation; cited from earlier work
[1] = most values in rats, average if more than one value; cited from earlier work

Structure (SMILES) | logk10,HSA (human serum albumin) | fu,brain [1]
CN(C)C(=N)N=C(N)N [Metformin] | -1.37 | 
CNC(=C[N+](=O)[O-])NCCSCc1ccc(CN(C)C)o1 [Ranitidine] |  | 0.955
